The source of these data is PMC4686660, “MLLT1 YEATS domain mutations in clinically distinctive Favourable Histology Wilms tumours” (Nature Communications, 2015).

The target of the test is T1, MLLT1 YEATS domain polypeptide p.111_113NPP>K (human, UniProt Q03111 1-138, p.111_113NPP>K).
T1 construct: MLLT1 (ENL), human, YEATS domain, residues 1-138 of the wild type, with the somatic Wilms tumour mutation c.333_339 (NPP 111-113 replaced by K); Somatic mutation found in tumours; source: E. coli BL21(pLysS), purified (Ni-NTA sepharose, size exclusion chromatography)
T1 sequence (looked up): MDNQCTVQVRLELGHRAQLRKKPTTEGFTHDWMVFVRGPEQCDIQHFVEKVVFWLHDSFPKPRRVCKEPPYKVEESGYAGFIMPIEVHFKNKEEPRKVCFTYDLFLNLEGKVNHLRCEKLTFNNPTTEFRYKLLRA
The test can be described thus: ITC; YEATS domain in the measurement cell (90-130 uM), histone peptides in the injection syringe (1.2 mM); 50 mM Hepes pH 7.4, 300 mM NaCl, 5 mM beta-mercaptoethanol, 25 °C; MicroCal ITC200 and TA Nano microcalorimeters; triplicate. The settings on record: both partners purified.

B1: H3K9ac histone H3 tail peptide (peptide)
chain: ARTKQTARKST
modifications: acetyl-lysine at K9
B1 registered a Kd of 57 µM. That is a double-digit micromolar value.

Usually Kd stands for the constant that tells how readily two partners part at equilibrium. Lower therefore signals tighter binding.
